{"source": "PubChem BioAssay AID652268", "about": "(The Scripps Research Institute Molecular Screening Center, 2013)", "note": "Only a part is listed here, and it is no random draw. The source made the active and inactive calls. No stated cut-off is given here; in the data, active means activation above about 1.3%; inactive means the rest.", "data": [{"experiment": "parental HEK293-CNG cell agonism artefacts – fluorescence, high throughput, counter-screen for GalR3 antagonist project (AID 652268)", "settings": "HEK293-CNG parental cells, cAMP membrane potential fluorescence; at 3 µM; hits give high values; normalised: DMSO wells 0%, forskolin wells 100%", "values": [{"compound": "CCc1nc2c(n1)c1c(non1O)c1c2no[n+]1[O-]", "activation": "inactive: 0.34%"}, {"compound": "Cc1ccc(NP(=O)(Oc2ccccc2)Oc2ccccc2)nc1", "activation": "inactive: 0%"}, {"compound": "CC1(CBr)Cn2c(nc3ccccc3c2=O)S1", "note": "(stereo not drawn)", "activation": "inactive: 0.13%"}]}]}
